KDM4E inh = inhibitors of human JMJD2E histone demethylase | AID 2147 | 1.6% of 230,000 active | Potency, µM (highest dose often 57.1 µM), for inactives: top-dose activity change, negative = inhibition, most hits filed as inhibitors | JMJD2E catalytic domain, FDH-coupled NADH fluorescence (FDH is formaldehyde dehydrogenase) | B2RXH2; active = well fitted inhibition curve with a large enough effect, not every such curve was filed as active; inconclusive = small, poorly fitted or top-dose-only effect, or another doubt; inactive = no such curve, though single readings can be large or run the other way;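 note: potency is the fitted concentration of half-maximal effect; 0% = wells with enzyme and -100% = buffer wells without enzyme; nearly all actives have a fitted effect of over 50% in size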
ALDH1A1 block = ALDH1A1 (human) enzyme inhibition | P00352 | Purified ALDH1A1, NADH fluorescence, propionaldehyde substrate | Potency, µM (top dose mostly 75.3 µM), for inactives: at the highest dose activity, negative = inhibition, hits mostly inhibitors | 7.3% of 220,000 active | AID 1030; active = well fitted inhibition curve with a large enough effect, not every such curve was filed as active; inconclusive = small, poorly fitted or top-dose-only effect, or another doubt; inactive = no such curve, though single readings can be large or run the other way;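 note: potency is the fitted concentration of half-maximal effect; plate controls were no enzyme wells and a reference inhibitor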
Sfp inh = blocks B. subtilis Sfp PPTase activity | 310,000 compounds, 3.5% hits | Potency, µM, without a hit: max response, negative = inhibition, actives largely listed as inhibitors | Biochemical Sfp PPTase activity, qHTS; active means well fitted inhibition curve with a large enough effect; inconclusive means small, poorly fitted or top-dose-only effect, or another doubt; inactive means no such curve, though single readings can be large or run the other way;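 further: the enzyme is Sfp with the accession as filed and its product quenches rhodamine fluorescence; potency means the concentration at half of the fitted maximal effect; 0% = enzyme reaction without inhibitor and -100% = no enzyme wells; top concentration of the series not given in the record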
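Buffer: 50 mM Hepes-Na pH 7.6, 10 mM MgCl2, 0.01% Nonidet P-40, 0.01% BSA. Enzyme 15 nM, pre-exposed to compound 15 min; substrates then added and fluorescence change tracked over 30 min.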
G9a inh = inhibitors of human histone lysine methyltransferase G9a; G9a H3K9 monomethylation, AlphaScreen, 2 h; Potency, µM (highest dose often 102 µM), without a hit: at the top dose activity, negative = inhibition, hits mostly inhibitors; 8.8% of 350,000 active; AID 504332; note: potency is the fitted concentration of half-maximal effect; % is set by controls: 0 for no effect and ±100 for the full control effect; nearly all actives have a fitted effect of over 75% in size
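G9a (20 nM) was preincubated 15 min with compound, then reacted 2 h at room temperature with 500 nM biotin-H3K9 peptide and 20 µM SAM. Monomethyl-H3K9 detected by AlphaScreen using anti-H3K9me1 antibody.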
LMNA splice mod = changes lamin A minigene splicing in HeLa cells; HeLa LMNA splicing GFP/RFP minigene ratio, 48 h; Potency, µM (series often up to 46.1 µM), without a hit: top-dose ratio change, negative = inhibition, actives largely listed as inhibitors; 0.01% of 200,000 active; active = well fitted inhibition curve with a large enough effect in the signal ratio, with a control signal flat, not every such curve was filed as active; inconclusive = small, poorly fitted or top-dose-only effect, or effect the other way, or a change in a side signal; the % refers to the signal ratio; note: potency is the fitted concentration of half-maximal effect; % is set by controls: 0 for no effect and ±100 for the full control effect
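S3 HeLa cells stably expressing lamin A-EGFP splicing minigene plus DsRed2, 600 cells/well, 48 h compound exposure at 37C. Laser-scanning cytometry; analysed as GFP (500-530 nm)/RFP (575-640 nm) total intensity ratio; 0.5% DMSO vehicle.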
miR-21 reporter = raises the signal of a miR-21 reporter; Potency, µM (doses to about 38.3 µM), inactives show top-dose reporter change, positive = more light; HeLa miR-21 FLuc reporter, luciferase, 48 h; AID 2288; 340,000 tested, under 10 active; active = well fitted rising curve with a large enough effect; inconclusive = small, poorly fitted or top-dose-only effect; inactive = no such curve, though single readings can be large or run the other way;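 further: % of control where 0% means no effect; miR-21 action dims this reporter so a rising signal means less miR-21 action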
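HeLa cells endogenously expressing miR-21, stably carrying CMV-driven firefly luciferase with a downstream miR-21 binding site, 2000 cells/well. Titrations up to approximately 40 uM, 48 hours; luciferase luminescence read.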
An asterisk follows results filed as active; ? = inconclusive; / = no result; ! = not active in a repeat; [ ] = dose if it differs, or a comment. Only some compounds are listed: those with a hit (about 13% of all), similar ones and a draw of the others. Unless noted, calls come from the whole dose curve; as a rule, active = well fitted curve in the direction sought with a large enough effect; inconclusive = small, poorly fitted or top-dose-only effect, or another doubt; inactive = no such curve, though single readings can be large; an effect the other way counts as inactive or inconclusive.

1. O=C(c1cccc(S(=O)(=O)N2CCc3ccccc3C2)c1)N1CCN(c2ccccc2)CC1
2. Cc1ccc(-c2nnc(Nc3ccc(Br)cc3)c3ccccc23)cc1S(=O)(=O)NCC1CCCO1 (configuration not stated)
3. O=C(O)CC1(CC(=O)NCc2cc(F)cc3c2OCOC3)CCCCC1
4. CC(C)C[C@@H](CN(C)N=O)N(C[C@H](Cc1ccccc1)N(CCc1ccccc1)N=O)N=O
5. COc1ccccc1Nc1nc(-c2cccc(N3C(=O)c4ccccc4C3=O)c2)cs1
6. O=C1c2ccccc2C(=O)N1c1cccc(-c2csc(Nc3ccc4c(c3)OCO4)n2)c1
7. CCCc1nn2c(=O)cc(COC(=O)c3ccccc3NC(=O)c3ccc(Cl)cc3)nc2s1
8. CC(=O)NC(c1cccs1)c1cc(F)c2cccnc2c1O (configuration not stated)

screen / no.,1,2,3,4,5,6,7,8
ALDH1A1 block,-3%,/,10µM*,8.9µM*,?,7.1µM*,/,/
G9a inh,-2%[59 µM],-1%[59 µM],-1%,1%[59 µM],25µM*,8.9µM*,5%[59 µM],2%[12.7 µM]
LMNA splice mod,?,/,/,/,-7%,-2%,?,/
miR-21 reporter,3%,6%,0%,12%,-1%,-40%,0%,/
KDM4E inh,8%,/,9%,0%,3%,-8%,/,/
Sfp inh,-11%,/,10%,3%,0%,?,/,/

9. CCC(=O)NC(/C=C/c1ccccc1)c1cc([N+](=O)[O-])c2cccnc2c1O (configuration not stated)
10. Cc1ccc(C(NC(=O)C(C)C)c2cc([N+](=O)[O-])c3cccnc3c2O)cc1 (configuration not stated)
11. CC(C)C(=O)NC(c1cccs1)c1cc([N+](=O)[O-])c2cccnc2c1O (configuration not stated)
12. Cc1ccc(-c2nnc3ccccc3c2C(=O)Nc2ccc(C)c(F)c2)cc1
13. CCOCCCNC(=O)C(NC(=O)c1ccccc1O)c1ccc(C)cc1 (configuration not stated)
14. CC(C)NC(=O)N1CCC2(CC1)CCN(C(=O)c1ccncc1)CC2
15. Cc1nn(C)c(C)c1S(=O)(=O)N(CC(=O)N1CCc2ccccc2C1)c1ccc(C(C)C)cc1
16. COc1ccc(CCNC(=O)c2ccc3ccccc3n2)cc1

screen / no.,9,10,11,12,13,14,15,16
ALDH1A1 block,0%,-2%,1%,/,?,-5%,11µM*,/
G9a inh,3.2µM*,?,14µM*,4%[59 µM],5.6µM*,5%[12.7 µM],9%,?
LMNA splice mod,?,?,?,/,/,/,0%,/
miR-21 reporter,-2%,5%,1%,-40%,-5%,/,-2%,-49%
KDM4E inh,-9%,20µM*,-6%,/,-10%,/,-3%,/
Sfp inh,4%,-17%,?,/,9%,14%,-4%,-8%

17. CCC1CCCCN1C(=O)COc1ccc2c(c1)OCO2 (configuration not stated)
18. CC1CCCN(C(=O)COc2ccc3c(c2)OCO3)C1 (configuration not stated)
19. Cc1ccc(Cl)cc1N1CCN(C(=O)CCS(=O)(=O)c2cccc3nonc23)CC1
20. Cc1ccc(Cl)cc1N1CCN(C(=O)C2CCN(S(=O)(=O)c3cccc4nonc34)CC2)CC1
21. CC(C)NC(=O)CCS(=O)(=O)c1cccc2nonc12
22. CC(C)c1ccc(NC(=O)CCS(=O)(=O)c2cccc3nonc23)cc1
23. O=C(CCS(=O)(=O)c1cccc2nonc12)NCCc1ccccc1
24. O=C(CCS(=O)(=O)c1cccc2nonc12)NCc1ccc(Cl)cc1

screen / no.,17,18,19,20,21,22,23,24
ALDH1A1 block,/,/,22µM*,/,25µM*,/,22µM*,8.9µM*
G9a inh,71µM*,/,?,?,-33%,-9%,-7%[12.7 µM],-27%
LMNA splice mod,/,/,?,/,5%,/,-8%,-21%[9.22 µM]
miR-21 reporter,-17%,-38%,-7%,20%,0%,-13%,-6%,-1%
KDM4E inh,/,/,-1%,/,2%,/,1%,-4%
Sfp inh,-1%,16%,9%,/,16%,1%,7%,5%

25. COc1cccc(CNC(=O)CCS(=O)(=O)c2cccc3nonc23)c1
26. O=C(Nc1ccccc1)N1CCCC2(CCN(C(=O)c3cc(C(F)(F)F)cc(C(F)(F)F)c3)CC2)C1
27. Cc1cccc(CNC(=O)c2cc3cc(S(=O)(=O)N4CCCCC4)ccc3n2C)c1
28. C/C(CC(=O)Nc1cccc(Br)c1)=N\NC(=O)c1ccc(O)cc1O
29. O=C(NCc1cccc(F)c1)c1ccc(CN2CC(=O)N3CCCCC3C2=O)cc1 (configuration not stated)
30. CCOC(=O)c1cc2c(=O)n3ccccc3nc2n(Cc2ccco2)c1=NC(=O)c1c(F)cccc1Cl
31. Cc1ccc(C)c(N2CCN(C(=O)CCNC(=O)Cn3ccc4ccccc4c3=O)CC2)c1
32. Cc1ccc(Cl)cc1N1CCN(C(=O)Cn2ccc3ccccc3c2=O)CC1

screen / no.,25,26,27,28,29,30,31,32
ALDH1A1 block,?,5%,/,/,/,/,1%,20µM*
G9a inh,-1%[12.7 µM],1%[12.7 µM],14%[59 µM],12%,8%[59 µM],9%[59 µM],?,-40%
LMNA splice mod,-1%,/,-8%[46 µM],/,-8%[46 µM],/,11%,?
miR-21 reporter,-5%,/,10%,-20%,2%,-1%,-4%,14%
KDM4E inh,-21%,/,/,/,/,/,-6%,-13%
Sfp inh,11%,14%,/,4%,/,/,13%,10%

33. CC(C)CCNC(=O)CCS(=O)(=O)c1cccc2nonc12
34. O=C(CCS(=O)(=O)c1cccc2nonc12)N1CCCc2ccccc21
35. CCCCC(CC)CNC(=O)CCS(=O)(=O)c1cccc2nonc12 (configuration not stated)
36. Cc1ccc(CNC(=O)CC2(CC3=NS(=O)(=O)c4ccccc4N3)CCCC2)cc1
37. COc1ccc(-n2c(-c3cnccn3)n[nH]c2=S)cc1
38. S=c1[nH]nc(-c2cnccn2)n1-c1ccccc1
39. COc1ccc(OC)c(-n2c(-c3cnccn3)n[nH]c2=S)c1
40. O=C(O)c1cccc(-n2c(-c3cnccn3)n[nH]c2=S)c1

screen / no.,33,34,35,36,37,38,39,40
ALDH1A1 block,10µM*,11µM*,?,/,-4%,-5%,?,-3%
G9a inh,-41%[12.7 µM],0%[12.7 µM],10%[59 µM],/,5µM*,?,10µM*,10µM*
LMNA splice mod,-1%,11%,0%,/,9%,-1%,7%,/
miR-21 reporter,-5%,-7%,-8%,20%,-4%,-6%,4%,1%
KDM4E inh,-1%,-29%,-1%,/,?,?,-21%,-1%
Sfp inh,11%,-7%,2%,-1%,50µM*,56µM*,-20%,28µM*

Another view of some results above.
Order of results – ALDH1A1 block | G9a inh | LMNA splice mod | miR-21 reporter | KDM4E inh | Sfp inh
[35] CCCCC(CC)CNC(=O)CCS(=O)(=O)c1cccc2nonc12 (configuration not stated)
    ? | 10%[59 µM] | 0% | -8% | -1% | 2%
[36] Cc1ccc(CNC(=O)CC2(CC3=NS(=O)(=O)c4ccccc4N3)CCCC2)cc1
    / | / | / | 20% | / | -1%
[37] COc1ccc(-n2c(-c3cnccn3)n[nH]c2=S)cc1
    -4% | 5µM* | 9% | -4% | ? | 50µM*

Additional results follow:
41. COc1cccc(-n2c(SC)nnc2-c2cnccn2)c1
42. CCOc1ccc(C(=O)Nc2nnc(S(=O)(=O)Nc3ccccc3C)s2)cc1
43. COc1ccc(OC)c(-n2c(Cn3c(-c4ccccn4)nc4ccccc43)n[nH]c2=S)c1
44. NCCSSCCN
45. NCCSCCC(=O)O

screen / no.,41,42,43,44,45
ALDH1A1 block,4%,/,-1%,-1%[13.5 µM],6%[13.5 µM]
G9a inh,-10%[59 µM],25%,2.5µM*,22µM*,/
LMNA splice mod,1%,/,-10%[46 µM],-9%,/
miR-21 reporter,-5%,-16%,-9%,-1%,/
KDM4E inh,-2%,/,?,3%,/
Sfp inh,16%,24%,25µM*,45µM*!,/

Screens deposited in PubChem BioAssay by National Center for Advancing Translational Sciences (NCATS).
